Earlier results on one substance are cited in patent publication US8524202B2, “Tooth whitening compositions and methods” (priority 2008, dated 2013).

As to chlorous acid, the “pKa for the chlorite ion/chlorous acid equilibrium” value was 1.8.
